{"source": "PubChem BioAssay (NCI)", "assay_in_all_cases": "NCI anticancer screen, dose series, 48 h", "key": {"786-0 renal": {"tested_on": "786-0 renal"}, "A498 renal": {"tested_on": "A498 renal"}, "A549 NSCLC": {"tested_on": "A549 NSCLC"}, "ACHN renal": {"tested_on": "ACHN renal"}, "BT-549 breast": {"tested_on": "BT-549 breast"}, "CAKI-1 renal": {"tested_on": "CAKI-1 renal"}, "CCRF-CEM leukemia": {"tested_on": "CCRF-CEM leukemia"}, "COLO 205 colon": {"tested_on": "COLO 205 colon"}, "DU-145 prostate": {"tested_on": "DU-145 prostate"}, "EKVX NSCLC": {"tested_on": "EKVX NSCLC"}, "HCT-116 colon": {"tested_on": "HCT-116 colon"}, "HCT-15 colon": {"tested_on": "HCT-15 colon"}, "HL-60(TB) leukemia": {"tested_on": "HL-60(TB) leukemia"}, "HOP-62 NSCLC": {"tested_on": "HOP-62 NSCLC"}, "HOP-92 NSCLC": {"tested_on": "HOP-92 NSCLC"}, "HS 578T breast": {"tested_on": "HS 578T breast"}, "HT29 colon": {"tested_on": "HT29 colon"}, "IGROV1 ovarian": {"tested_on": "IGROV1 ovarian"}, "K-562 leukemia": {"tested_on": "K-562 leukemia"}, "KM12 colon": {"tested_on": "KM12 colon"}, "LOX IMVI melanoma": {"tested_on": "LOX IMVI melanoma"}, "M14 melanoma": {"tested_on": "M14 melanoma"}, "MALME-3M melanoma": {"tested_on": "MALME-3M melanoma"}, "MCF7 breast": {"tested_on": "MCF7 breast"}, "MDA-MB-231 breast": {"tested_on": "MDA-MB-231 breast"}, "MDA-MB-435": {"tested_on": "MDA-MB-435"}, "MDA-N": {"tested_on": "MDA-N"}, "MOLT-4 leukemia": {"tested_on": "MOLT-4 leukemia"}, "NCI-H23 lung": {"tested_on": "NCI-H23 lung"}, "NCI-H322M lung": {"tested_on": "NCI-H322M lung"}, "NCI-H460 lung": {"tested_on": "NCI-H460 lung"}, "NCI-H522 lung": {"tested_on": "NCI-H522 lung"}, "NCI/ADR-RES ovarian": {"tested_on": "NCI/ADR-RES ovarian"}, "OVCAR-3 ovarian": {"tested_on": "OVCAR-3 ovarian"}, "OVCAR-4 ovarian": {"tested_on": "OVCAR-4 ovarian"}, "OVCAR-5 ovarian": {"tested_on": "OVCAR-5 ovarian"}, "OVCAR-8 ovarian": {"tested_on": "OVCAR-8 ovarian"}, "PC-3 prostate": {"tested_on": "PC-3 prostate"}, "RPMI-8226 leukemia": {"tested_on": "RPMI-8226 leukemia"}, "RXF 393 renal": {"tested_on": "RXF 393 renal"}, "SF-268 CNS": {"tested_on": "SF-268 CNS"}, "SF-295 CNS": {"tested_on": "SF-295 CNS"}, "SF-539 CNS": {"tested_on": "SF-539 CNS"}, "SK-MEL-2 melanoma": {"tested_on": "SK-MEL-2 melanoma"}, "SK-MEL-28 melanoma": {"tested_on": "SK-MEL-28 melanoma"}, "SK-MEL-5 melanoma": {"tested_on": "SK-MEL-5 melanoma"}, "SK-OV-3 ovarian": {"tested_on": "SK-OV-3 ovarian"}, "SN12C renal": {"tested_on": "SN12C renal"}, "SNB-19 CNS": {"tested_on": "SNB-19 CNS"}, "SNB-75 CNS": {"tested_on": "SNB-75 CNS"}, "SR leukemia": {"tested_on": "SR leukemia"}, "SW-620 colon": {"tested_on": "SW-620 colon"}, "T-47D breast": {"tested_on": "T-47D breast"}, "TK-10 renal": {"tested_on": "TK-10 renal"}, "U251 CNS": {"tested_on": "U251 CNS"}, "UACC-257 melanoma": {"tested_on": "UACC-257 melanoma"}, "UACC-62 melanoma": {"tested_on": "UACC-62 melanoma"}, "UO-31 renal": {"tested_on": "UO-31 renal"}}, "note": "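Each compound was tested at five concentrations against cells in 96-well plates for 48 hours. Abbreviation: GI50, concentration required for 50% inhibition of growth. Definition used: TGI = concentration required for complete inhibition of growth.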", "data": [{"smiles": "Cc1ccc([N+](=O)[O-])c(C[N+](C)(CCCl)CCCl)c1", "values": [{"measurement": "TGI", "setting": "786-0 renal", "value": 57.8, "unit": "µM"}, {"measurement": "TGI", "setting": "A498 renal", "value": 51.4, "unit": "µM"}, {"measurement": "TGI", "setting": "A549 NSCLC", "value": 68.4, "unit": "µM"}, {"measurement": "GI50", "setting": "ACHN renal", "value": 6.09, "unit": "µM"}, {"measurement": "TGI", "setting": "ACHN renal", "value": 21.8, "unit": "µM"}, {"measurement": "TGI", "setting": "BT-549 breast", "value": 67.9, "unit": "µM"}, {"measurement": "TGI", "setting": "CAKI-1 renal", "value": 33.4, "unit": "µM"}, {"measurement": "TGI", "setting": "CCRF-CEM leukemia", "value": 52.2, "unit": "µM"}, {"measurement": "TGI", "setting": "COLO 205 colon", "value": 34.5, "unit": "µM"}, {"measurement": "TGI", "setting": "DU-145 prostate", "value": 26.2, "unit": "µM"}, {"measurement": "TGI", "setting": "EKVX NSCLC", "value": 48.8, "unit": "µM"}, {"measurement": "TGI", "setting": "HCT-116 colon", "value": 53.5, "unit": "µM"}, {"measurement": "TGI", "setting": "HCT-15 colon", "value": 41.7, "unit": "µM"}, {"measurement": "TGI", "setting": "HL-60(TB) leukemia", "value": 44.4, "unit": "µM"}, {"measurement": "TGI", "setting": "HOP-62 NSCLC", "value": 80.1, "unit": "µM"}, {"measurement": "TGI", "setting": "HOP-92 NSCLC", "value": 69.4, "unit": "µM"}, {"measurement": "TGI", "setting": "HS 578T breast", "value": "> 100", "unit": "µM"}, {"measurement": "TGI", "setting": "HT29 colon", "value": "> 100", "unit": "µM"}, {"measurement": "TGI", "setting": "IGROV1 ovarian", "value": 64.9, "unit": "µM"}, {"measurement": "TGI", "setting": "K-562 leukemia", "value": 61.2, "unit": "µM"}, {"measurement": "TGI", "setting": "KM12 colon", "value": 36.6, "unit": "µM"}, {"measurement": "TGI", "setting": "LOX IMVI melanoma", "value": 83.4, "unit": "µM"}, {"measurement": "TGI", "setting": "M14 melanoma", "value": 39.7, "unit": "µM"}, {"measurement": "TGI", "setting": "MALME-3M melanoma", "value": 30.4, "unit": "µM"}, {"measurement": "TGI", "setting": "MCF7 breast", "value": 21.5, "unit": "µM"}, {"measurement": "TGI", "setting": "MDA-MB-231 breast", "value": 93.9, "unit": "µM"}, {"measurement": "TGI", "setting": "MDA-MB-435", "value": 22.2, "unit": "µM"}, {"measurement": "TGI", "setting": "MDA-N", "value": 28.1, "unit": "µM"}, {"measurement": "TGI", "setting": "MOLT-4 leukemia", "value": 49.6, "unit": "µM"}, {"measurement": "TGI", "setting": "NCI-H23 lung", "value": 51.4, "unit": "µM"}, {"measurement": "TGI", "setting": "NCI-H322M lung", "value": 76.3, "unit": "µM"}, {"measurement": "TGI", "setting": "NCI-H460 lung", "value": 62.3, "unit": "µM"}, {"measurement": "TGI", "setting": "NCI-H522 lung", "value": 59.3, "unit": "µM"}, {"measurement": "TGI", "setting": "NCI/ADR-RES ovarian", "value": 66.4, "unit": "µM"}, {"measurement": "TGI", "setting": "OVCAR-3 ovarian", "value": 48.3, "unit": "µM"}, {"measurement": "TGI", "setting": "OVCAR-4 ovarian", "value": 27.7, "unit": "µM"}, {"measurement": "TGI", "setting": "OVCAR-5 ovarian", "value": "> 100", "unit": "µM"}, {"measurement": "TGI", "setting": "OVCAR-8 ovarian", "value": "> 100", "unit": "µM"}, {"measurement": "TGI", "setting": "PC-3 prostate", "value": 75.4, "unit": "µM"}, {"measurement": "GI50", "setting": "RPMI-8226 leukemia", "value": 7.39, "unit": "µM"}, {"measurement": "TGI", "setting": "RPMI-8226 leukemia", "value": 33, "unit": "µM"}, {"measurement": "GI50", "setting": "RXF 393 renal", "value": 11.3, "unit": "µM"}, {"measurement": "TGI", "setting": "RXF 393 renal", "value": 30.6, "unit": "µM"}, {"measurement": "GI50", "setting": "SF-268 CNS", "value": 34.3, "unit": "µM"}, {"measurement": "TGI", "setting": "SF-268 CNS", "value": "> 100", "unit": "µM"}, {"measurement": "TGI", "setting": "SF-295 CNS", "value": 82.2, "unit": "µM"}, {"measurement": "TGI", "setting": "SF-539 CNS", "value": 92, "unit": "µM"}, {"measurement": "TGI", "setting": "SK-MEL-2 melanoma", "value": "> 100", "unit": "µM"}, {"measurement": "TGI", "setting": "SK-MEL-28 melanoma", "value": 89.5, "unit": "µM"}, {"measurement": "GI50", "setting": "SK-MEL-5 melanoma", "value": 10.5, "unit": "µM"}, {"measurement": "TGI", "setting": "SK-MEL-5 melanoma", "value": 22.2, "unit": "µM"}, {"measurement": "GI50", "setting": "SK-OV-3 ovarian", "value": 37.1, "unit": "µM"}, {"measurement": "TGI", "setting": "SK-OV-3 ovarian", "value": "> 100", "unit": "µM"}, {"measurement": "GI50", "setting": "SN12C renal", "value": 11.5, "unit": "µM"}, {"measurement": "TGI", "setting": "SN12C renal", "value": 47.8, "unit": "µM"}, {"measurement": "TGI", "setting": "SNB-19 CNS", "value": 72.4, "unit": "µM"}, {"measurement": "TGI", "setting": "SNB-75 CNS", "value": 56.7, "unit": "µM"}, {"measurement": "TGI", "setting": "SR leukemia", "value": 21.3, "unit": "µM"}, {"measurement": "TGI", "setting": "SW-620 colon", "value": 78.7, "unit": "µM"}, {"measurement": "TGI", "setting": "T-47D breast", "value": 35.6, "unit": "µM"}, {"measurement": "TGI", "setting": "TK-10 renal", "value": 95.6, "unit": "µM"}, {"measurement": "TGI", "setting": "U251 CNS", "value": 65.4, "unit": "µM"}, {"measurement": "TGI", "setting": "UACC-257 melanoma", "value": 30.2, "unit": "µM"}, {"measurement": "TGI", "setting": "UACC-62 melanoma", "value": 29.4, "unit": "µM"}, {"measurement": "TGI", "setting": "UO-31 renal", "value": 65.2, "unit": "µM"}]}]}
